Experimental data: patent publication US20020160988A1 (priority 2001, published 2002)

System: rat brain muscarinic receptors (all muscarinic receptor subtypes)
Experiment: Displacement of [^3H]NMS from rat brain
Conditions: L = 0.48 nM, KD = 0.2 nM, tested form: bromide

`COc1ccc2cc(C(C)C(=O)OCCCCCCCC[n+]3cccc(OC(=O)N(C)C)c3)ccc2c1` (centres unmarked) was tested, and the pIC50 was 4.64 and the pKi was 5.16.

pIC50, pKi: −log10 of the molar value.
